As a reminder, the IC50 is the concentration that inhibits the measured activity by half.

Protein sequences, listed by entry. Tags and fused reporters are not part of them.
UniProt Q16539, whole entry: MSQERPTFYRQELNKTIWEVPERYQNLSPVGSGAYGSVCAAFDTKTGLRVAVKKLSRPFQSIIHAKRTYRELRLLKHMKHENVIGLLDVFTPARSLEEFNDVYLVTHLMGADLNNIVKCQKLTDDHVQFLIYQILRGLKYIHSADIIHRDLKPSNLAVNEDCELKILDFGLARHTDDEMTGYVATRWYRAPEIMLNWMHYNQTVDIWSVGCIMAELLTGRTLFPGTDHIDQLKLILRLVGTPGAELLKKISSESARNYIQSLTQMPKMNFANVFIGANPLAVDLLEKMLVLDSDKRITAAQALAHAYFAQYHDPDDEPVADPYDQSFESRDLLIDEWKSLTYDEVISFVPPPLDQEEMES

This assay addresses p38α (Homo sapiens, UniProt Q16539). As to the kind of experiment: P38α enzyme inhibition assay (ATF-2 phosphorylation ELISA). Type of assay: biochemical. The note with it: activated p38α, substrate ATF-2, ATP 100 μM, 60 minutes incubation, photometric readout 405 nm; read-out: Kinase assay IC50. As for the experimental part: P38α Enzyme Inhibition Assay:
First the microtiter plates are coated using a dilution of ATF-2, substrate of p38α. Each step is followed by a threefold washing step. As the substrate doesn't cover the whole surface, blocking buffer is used to capture the free binding sites. In the meantime, the test compounds are diluted using the kinase buffer, which contains ATP [100 μM], phosphatase-inhibitors and the activated p38α.
The different dilutions of the test compounds are pipetted on the plate. ATP and the compounds compete for the enzyme's binding site. During an incubation time of 60 minutes ATF-2 is dual phosphorylated at Thr 69/71 by p38α kinase depending on its degree of inhibition. Next the first antibody is added into the wells. This antibody binds specifically at dual phosphorylated ATF-2 (Thr 69/71). Secondary antibody, that is conjugated with alkaline phosphatase, binds at the first one. Finally 4-NPP is given in the wells and after an incubation under cover of darkness it is photometrically analysed (405 nm).
In general terms: ELISA stands for enzyme-linked immunosorbent assay.

In the case of “3-(4-(4-Fluorophenyl)-5-(2-(3-methylbutan-2-ylamino)pyridin-4-yl)-1H-imidazol-2-ylthio)propane-1-ol [Example 8j]”, the IC50 turned out to be 0.012 µM.

(Values after US8143294B2, “2-sulfanyl-substituted imidazole derivatives and their use as cytokine inhibitors” (priority 2007, dated 2012).)
